Assay results taken from patent US20060094783A1 (Tava Pharmaceutical Industries, Ltd., priority 1990, published 2006).

Experiment: Physicochemical properties of PAI salts
Conditions: saturated PAI salt water solution

For tartarate, which Solubility is on record?
The Solubility was 33 mg/mL.
